By UniProt entry, the sequences of proteins in these tests, tags left out.
UniProt Q07817, whole entry: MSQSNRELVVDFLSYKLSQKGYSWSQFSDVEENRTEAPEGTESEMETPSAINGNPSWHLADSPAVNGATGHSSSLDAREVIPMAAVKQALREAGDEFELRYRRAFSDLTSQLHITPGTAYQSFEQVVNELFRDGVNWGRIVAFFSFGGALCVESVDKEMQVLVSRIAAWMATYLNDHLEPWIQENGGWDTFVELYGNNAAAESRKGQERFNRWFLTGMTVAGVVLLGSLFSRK
UniProt P10415, whole entry: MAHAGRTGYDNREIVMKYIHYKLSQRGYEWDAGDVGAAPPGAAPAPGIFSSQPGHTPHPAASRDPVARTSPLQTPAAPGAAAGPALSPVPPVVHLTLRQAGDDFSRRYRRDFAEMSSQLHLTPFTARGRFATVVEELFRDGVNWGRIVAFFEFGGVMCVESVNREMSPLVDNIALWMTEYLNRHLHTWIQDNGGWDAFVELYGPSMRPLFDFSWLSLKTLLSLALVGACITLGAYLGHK

According to patent publication US12648945B2 (dated 2026):

What was measured:
Bcl-XL = Bcl-XL (Homo sapiens, UniProt Q07817); assay: Fluorescence polarization competitive binding assay, Bcl-XL (Flu-BAK probe); conditions: read-out: Inhibitory Activity IC50 Bcl-XL; FP competition, 10 nM protein, 2 nM Flu-BAK
Bcl-2 = Bcl-2 (Homo sapiens, UniProt P10415)

In the case of “2-((1H-pyrrolo[2,3-b]pyridin-5-yl)oxy)-4-(1-((6- (4-chlorophenyl)-2-oxaspiro[3.5]non-6-en-7- yl)methyl)-1,2,3,6-tetrahydropyridin-4-yl)-N-((3- nitro-4-(((tetrahydro-2H-pyran-4- yl)methyl)amino)phenyl)sulfonyl)benzamide [Compound 10]”, the IC50 (Bcl-XL) is reported as 20.6 nM and the IC50 (Bcl-2) is reported as 1.9 nM.
